The source of these data is patent US20080269248A1, “Tartrate and Malate Salts of Trans-1-((1R,3S)-6-Chloro-3-Phenylindan-1-Yl)-3,3-Dimethylpiperazine” (H. Lundbeck A/S, priority 2005, published 2008).

This data set in a line: solubility of the salts. The format is physicochemical.

Turning to “trans-1-((1R,3S)-6-chloro-3-phenylindan-1-yl)-3,3-dimethylpiperazinium L-tartrate [tartrate salt]”, the solubility was determined as 0.5 mg/mL.

As usually defined, the solubility is how much of the substance goes into solution per volume.
